We go through 31 molecules from US20260124309A1, “STAT6 DEGRADERS AND USES THEREOF” (Kymera Therapeutics, Inc., priority 2023, published 2026).

Protein sequences, listed by entry. Tags and fused reporters are not part of them. Residues count along the entry.
UniProt P42226, whole entry: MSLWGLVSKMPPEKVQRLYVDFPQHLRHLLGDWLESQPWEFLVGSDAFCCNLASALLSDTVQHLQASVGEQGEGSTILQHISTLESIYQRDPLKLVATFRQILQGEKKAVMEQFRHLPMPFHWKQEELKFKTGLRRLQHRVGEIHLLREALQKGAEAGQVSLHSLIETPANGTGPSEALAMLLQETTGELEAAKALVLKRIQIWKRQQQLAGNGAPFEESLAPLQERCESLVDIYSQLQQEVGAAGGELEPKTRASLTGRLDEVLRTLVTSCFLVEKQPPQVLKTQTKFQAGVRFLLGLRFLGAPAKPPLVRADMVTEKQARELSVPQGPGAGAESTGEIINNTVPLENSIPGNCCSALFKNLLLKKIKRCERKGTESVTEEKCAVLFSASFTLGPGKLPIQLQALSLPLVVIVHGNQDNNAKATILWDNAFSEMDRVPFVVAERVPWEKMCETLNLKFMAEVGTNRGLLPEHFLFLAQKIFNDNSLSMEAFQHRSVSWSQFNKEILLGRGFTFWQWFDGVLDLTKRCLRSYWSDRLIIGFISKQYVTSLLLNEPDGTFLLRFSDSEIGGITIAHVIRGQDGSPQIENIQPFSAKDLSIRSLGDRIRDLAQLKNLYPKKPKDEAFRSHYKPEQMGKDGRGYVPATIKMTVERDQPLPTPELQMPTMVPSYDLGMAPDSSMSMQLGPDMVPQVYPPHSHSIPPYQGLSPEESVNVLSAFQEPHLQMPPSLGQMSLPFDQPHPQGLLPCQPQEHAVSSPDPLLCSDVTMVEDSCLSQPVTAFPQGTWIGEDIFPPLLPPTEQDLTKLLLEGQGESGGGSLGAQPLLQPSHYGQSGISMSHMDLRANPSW
UniProt P42226, 123-632 limits assumed: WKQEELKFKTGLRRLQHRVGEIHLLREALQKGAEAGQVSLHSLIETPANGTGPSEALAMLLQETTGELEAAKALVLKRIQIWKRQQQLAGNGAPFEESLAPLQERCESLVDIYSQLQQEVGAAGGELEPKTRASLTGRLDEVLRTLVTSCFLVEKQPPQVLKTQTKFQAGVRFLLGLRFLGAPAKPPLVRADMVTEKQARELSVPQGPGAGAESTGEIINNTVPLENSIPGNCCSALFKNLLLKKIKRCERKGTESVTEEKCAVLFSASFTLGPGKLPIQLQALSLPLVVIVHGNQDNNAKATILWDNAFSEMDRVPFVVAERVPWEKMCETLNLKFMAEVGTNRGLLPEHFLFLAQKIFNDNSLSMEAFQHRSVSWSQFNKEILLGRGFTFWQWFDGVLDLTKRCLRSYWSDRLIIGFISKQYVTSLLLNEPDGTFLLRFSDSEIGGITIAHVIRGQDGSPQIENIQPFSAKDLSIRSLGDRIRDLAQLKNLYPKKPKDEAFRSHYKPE

The target of one test is STAT6 (Homo sapiens, UniProt P42226). As to the kind of experiment: STAT6 MSD degradation in A549 cells. Conditions: for DC50: read-out: STAT6 MSD degradation DC50 (nM) 24 h. In a few lines: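 A549 cells treated with a 9-point 1:3 series (top up to 10 uM) for 4 to 24 hours at 37° C., then lysed in RIPA. STAT6 quantified by sandwich MSD electrochemiluminescence immunoassay. DC50 and Dmax from four-parameter nonlinear fit, reported as letter-code bins.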

The target of test [1] is biotinylated truncated STAT6 (123-632)-avi (Homo sapiens, UniProt P42226). Put plainly: STAT6 HTRF binding assay. The settings on record: read-out: STAT6 HTRF: Average IC50; HTRF binding, 0.15 nM biotinylated truncated STAT6 (123-632)-avi, 20 nM fluorescein-labeled probe. Background: In TR-FRET formats the signal depends on donor and acceptor labels being close together.

By DC50 is commonly meant the midpoint of the concentration-degradation curve. As usually defined, the IC50 is the concentration at which inhibition is half-maximal. Turning to `COc1cc(N2CCN(CCc3cccc4c3n(C)c(=O)n4C3CCC(=O)NC3=O)CC2)ccc1-c1cc(C(=O)N(C)C)cc2sc(C3=CCCN(C(=O)CCc4nccs4)C3)nc12` (centres unmarked), at STAT6, the “STAT6 MSD degradation Dmax % 24 h” value is reported as “B (B (>70-90%))” and the DC50 is 10 to 100 nM. The IC50 in test [1] was less than 100 nM.
On the same counts, the results for `CN(C(=O)c1cc2c(-c3ccc(C4CCN(c5ccc(NC6CCC(=O)NC6=O)cc5F)CC4)cc3)cc(C3=CCCN(C(=O)CCn4ccnn4)C3)c(F)c2[nH]1)C1CC1` (centres unmarked) are “B (B (>70-90%))”, 1 to 10 nM and less than 100 nM.
On the same counts, the results for `CN(C)C(=O)c1cc2c(-c3ccc(C4CCN(c5ccc(C6CCC(=O)NC6=O)cc5F)CC4)cc3)cc([C@@H]3CCCN(C(=O)CCn4cccn4)C3)c(F)c2[nH]1` (some centres unmarked) are “B (B (>70-90%))”, 10 to 100 nM and 10000 to 100000 nM.
On the same counts, the results for `CN(C)C(=O)c1cc2c(-c3ccc(N4CCN(C5CCN(c6ccc(C7CCC(=O)NC7=O)cc6F)CC5)CC4)cc3F)cc(C3=CCCN(C(=O)CCn4cccn4)C3)c(F)c2[nH]1` (centres unmarked) are “A (A (>90%))”, less than 1 nM and less than 100 nM.
Turning to `COc1cc(N2CCC(N3CCN(c4cc(F)c(-c5cc(C6=CCCN(C(=O)CCn7cccn7)C6)c(F)c6[nH]c(C(=O)N(C)C)cc56)cc4F)CC3)CC2)c(F)cc1NC1CCC(=O)NC1=O` (centres unmarked), at STAT6, the “STAT6 MSD degradation Dmax % 24 h” value was “A (A (>90%))” and the DC50 is less than 1 nM. For the same molecule, the IC50 in test [1] was less than 100 nM.
On the same counts, the results for `COc1cc(C2CCN(c3cccc4c3n(C)c(=O)n4C3CCC(=O)NC3=O)CC2)ccc1-c1cc(C2=CCCN(C(=O)CCn3ccnn3)C2)c(F)c2[nH]ccc12` (centres unmarked) are “B (B (>70-90%))”, 1 to 10 nM and 1000 to 10000 nM.
Consider `COc1cc(N2CCN(CCOCCOCCOCCOCCN(C(=O)[C@H]3CCCN(c4cncc5ccccc45)C3)c3ccc(=O)n(CC(=O)O)c3)CC2)ccc1-c1cc(C2=CCCN(C(=O)CCn3ccnn3)C2)c(F)c2[nH]c(C(=O)N(C)C)cc12`, for which, at STAT6, the “STAT6 MSD degradation Dmax % 24 h” value is recorded as “B (B (>70-90%))” and the DC50 lay within 100 to 1000 nM. Besides, the IC50 in test [1] was less than 100 nM.
On the same counts, the results for `COc1cc(N2CCN(c3cc(Cl)c(-c4cc(C5=CCCN(C(=O)CCn6cccn6)C5)c(F)c5[nH]c(C(=O)N(C)C)cc45)cc3F)CC2)c(F)cc1NC1CCC(=O)NC1=O` (centres unmarked) are “B (B (>70-90%))”, 1 to 10 nM and less than 100 nM.
Regarding `COc1cc(C2CCN(c3cc(F)c(-c4cc(C5=CCCN(C(=O)CCn6cccn6)C5)c(F)c5[nH]c(C(=O)N(C)C)cc45)cc3F)CC2)c(F)cc1NC1CCC(=O)NC1=O` (centres unmarked), at STAT6, the “STAT6 MSD degradation Dmax % 24 h” value is “A (A (>90%))” and the DC50 was less than 1 nM. Moreover, the IC50 in test [1] was 100 to 1000 nM.
Consider `CN(C)C(=O)c1cc2c(-c3ccc(N4CCN(CCc5ccc(C6CCC(=O)NC6=O)cc5F)CC4)cc3OC(F)(F)F)cc(C3=CCCN(C(=O)CCn4ccnn4)C3)c(F)c2[nH]1` (centres unmarked), for which, at STAT6, the “STAT6 MSD degradation Dmax % 24 h” value is “A (A (>90%))” and the DC50 was less than 1 nM. Also, the concentration for half-maximal inhibition (IC50) in test [1] was less than 100 nM.
The matching figures for `CC(=O)N1CCC=C(c2cc(-c3ccc(N4CCN(CCc5cccc6c5n(C)c(=O)n6C5CCC(=O)NC5=O)CC4)cc3Cl)c3cc(C(=O)N(C)C)[nH]c3c2F)C1` (centres unmarked): “A (A (>90%))”, less than 1 nM and 100 to 1000 nM.
The matching figures for `Cc1nn(C2CCC(=O)NC2=O)c2cccc(CCN3CCN(c4cc(Cl)c(-c5cc([C@H]6CCCN(C(=O)CCn7cccn7)C6)c(F)c6[nH]c(C(=O)N(C)C)cc56)cc4F)CC3)c12` (some centres unmarked): “A (A (>90%))”, less than 1 nM and 100 to 1000 nM.
The matching figures for `CN(C)C(=O)c1cc2c(-c3ccc(C4CCN(c5cc(F)c(C6CCC(=O)NC6=O)c(F)c5)CC4)cc3)cc([C@H]3CCCN(C(=O)CCn4cccn4)C3)c(F)c2[nH]1` (some centres unmarked): “A (A (>90%))”, less than 1 nM and 100 to 1000 nM.
Turning to `COc1cc(N2CCN(CCOCCOCCOCCN(C(=O)[C@H]3CCCN(c4cncc5ccccc45)C3)c3ccc(=O)n(CC(=O)O)c3)CC2)ccc1-c1cc(C2=CCCN(C(=O)CCn3ccnn3)C2)c(F)c2[nH]c(C(=O)N(C)C)cc12`, at STAT6, the “STAT6 MSD degradation Dmax % 24 h” value is recorded as “B (B (>70-90%))” and the DC50 fell in the range of 10 to 100 nM. In addition, the IC50 in test [1] was less than 100 nM.
On to `Cn1c(=O)n(C2CCC(=O)NC2=O)c2cccc(CCN3CCN(c4ccc(-c5cc([C@H]6CCCN(C(=O)CCn7cccn7)C6)c(F)c6[nH]c(C(=O)N7CCCC7)cc56)cc4)CC3)c21` (some centres unmarked), for which, on STAT6, the “STAT6 MSD degradation Dmax % 24 h” value is listed as “B (B (>70-90%))” and the DC50 was less than 1 nM. For the same molecule, the half-inhibitory concentration (IC50) in test [1] was in the range of 100 to 1000 nM.
Consider `CC(C)C(=O)N1CCC=C(c2cc(-c3cc(F)c(N4CCN(CCc5cccc6c5n(C)c(=O)n6C5CCC(=O)NC5=O)CC4)cc3Cl)c3cc(C(=O)N(C)C)[nH]c3c2F)C1` (centres unmarked), for which, at STAT6, the “STAT6 MSD degradation Dmax % 24 h” value was “A (A (>90%))” and the DC50 was less than 1 nM. The IC50 in test [1] fell in the range of 1000 to 10000 nM.
On the same counts, the results for `COc1cc(C2CCN(CCc3ccc(C4CCC(=O)NC4=O)cc3F)CC2)ccc1-c1cc(C2=CCCN(C(=O)CCn3ccnn3)C2)c(F)c2[nH]c(C(=O)N(C)C)cc12` (centres unmarked) are “A (A (>90%))”, less than 1 nM and less than 100 nM.
On the same counts, the results for `COc1cc(N2CCN(CCc3cccc4c3n(C)c(=O)n4C3CCC(=O)NC3=O)CC2)ccc1-c1cc(C(=O)N(C)C)cc2cc(C3=CCCN(C(C)=O)C3)[nH]c12` (centres unmarked) are “B (B (>70-90%))”, 1 to 10 nM and 100 to 1000 nM.
On the same counts, the results for `CN(C)C(=O)c1cc2c(-c3ccc(C4CCN(c5cc(F)c(C6CCC(=O)NC6=O)c(F)c5)CC4)cc3)cc(C3=CCCN(C(=O)CCn4cccn4)C3)c(F)c2[nH]1` (centres unmarked) are “A (A (>90%))”, less than 1 nM and 100 to 1000 nM.
For the molecule `COc1cc(N2CCN(CCc3ccc(C4CCC(=O)NC4=O)c(F)c3)CC2)ccc1-c1cc(C2=CCCN(C(=O)CCn3cccn3)C2)c(F)c2[nH]c(C(=O)N(C)C)cc12` (centres unmarked), on STAT6, the “STAT6 MSD degradation Dmax % 24 h” value is listed as “A (A (>90%))” and the DC50 was less than 1 nM. Besides, in test [1], the IC50 is less than 100 nM.
Take `COc1cc(N2CCC3(CCN(c4cc(F)c(-c5cc(C6=CCCN(C(=O)CCn7cccn7)C6)c(F)c6[nH]c(C(=O)N(C)C)cc56)cc4F)CC3)CC2)c(F)cc1NC1CCC(=O)NC1=O` (centres unmarked): at STAT6, the “STAT6 MSD degradation Dmax % 24 h” value was “A (A (>90%))” and the DC50 lay in the range of 1 to 10 nM. In addition, the IC50 in test [1] is less than 100 nM.
On the same counts, the results for `COc1cc([C@H]2CC[C@@H](c3ccc(-c4cc(C5=CCCN(C(=O)CCn6cccn6)C5)c(F)c5[nH]c(C(=O)N(C)C)cc45)c(F)c3)CC2)c(F)cc1NC1CCC(=O)NC1=O` (some centres unmarked) are “B (B (>70-90%))”, 1 to 10 nM and 100 to 1000 nM.
The matching figures for `COc1cc(C2CCN(c3cccc4c3n(C)c(=O)n4C3CCC(=O)NC3=O)CC2)ccc1-c1cc(C2=CCCN(C(=O)C(C)C)C2)c(F)c2[nH]c(C(=O)N(C)C)cc12` (centres unmarked): “A (A (>90%))”, less than 1 nM and 1000 to 10000 nM.
For the molecule `COc1cc(C2CCN(c3cc(F)c(-c4cc([C@H]5CCCN(C(=O)CCn6cccn6)C5)c(F)c5[nH]c(C(=O)N(C)C)cc45)cc3F)CC2)c(F)cc1NC1CCC(=O)NC1=O` (some centres unmarked), on STAT6, the “STAT6 MSD degradation Dmax % 24 h” value is on record as “A (A (>90%))” and the DC50 is 1 to 10 nM. Further, the IC50 in test [1] was 1000 to 10000 nM.
The matching figures for `CC(=O)N1CCC=C(c2cc(-c3ccc(N4CCN(CCc5cccc6c5n(C)c(=O)n6C5CCC(=O)NC5=O)CC4)cc3C(C)(F)F)c3cc(C(=O)N(C)C)[nH]c3c2F)C1` (centres unmarked): “A (A (>90%))”, less than 1 nM and 100 to 1000 nM.
Regarding `COc1cc(N2CCN(c3ccc(-c4cc(C5=CCCN(C(=O)CCn6cccn6)C5)c(F)c5[nH]c(C(=O)N(C)C)cc45)c(C#N)c3)CC2)c(F)cc1NC1CCC(=O)NC1=O` (centres unmarked), on STAT6, the “STAT6 MSD degradation Dmax % 24 h” value is listed as “A (A (>90%))” and the DC50 is less than 1 nM. Besides, the half-maximal inhibitory concentration (IC50) in test [1] was less than 100 nM.
The matching figures for `CN(C)C(=O)c1cc2c(-c3ccc(C4CCN(c5ccc(NC6CCC(=O)NC6=O)cc5F)CC4)cc3)cc([C@@H]3CCCN(C(=O)CCn4ccnn4)C3)c(F)c2[nH]1` (some centres unmarked): “C (C (>50-70%))”, 10 to 100 nM and 1000 to 10000 nM.
On the same counts, the results for `CN(C)C(=O)c1cc2c(-c3ccc(C#Cc4ccc(NC5CCC(=O)NC5=O)cc4F)cc3)cc(C3=CCCN(C(=O)CCn4ccnn4)C3)c(F)c2[nH]1` (centres unmarked) are “B (B (>70-90%))”, less than 1 nM and less than 100 nM.
In the case of `COc1cc(N2CCN(c3cc(F)c(-c4cc(C5=CCCN(C(=O)CCn6cccn6)C5)c(F)c5[nH]c(C(=O)N(C)C)cc45)cc3F)CC2)c(F)cc1NC1CCC(=O)NC1=O` (centres unmarked), on STAT6, the “STAT6 MSD degradation Dmax % 24 h” value is “B (B (>70-90%))” and the DC50 fell in the range of 1 to 10 nM. The IC50 in test [1] was less than 100 nM.
For the molecule `COc1cc(N2CCN(c3cc(F)c(-c4cc([C@@H]5CCCN(C(=O)CCn6cccn6)C5)c(F)c5[nH]c(C(=O)N(C)C)cc45)cc3F)CC2)c(F)cc1NC1CCC(=O)NC1=O` (some centres unmarked), the half-maximal degradation concentration (DC50) on STAT6 was greater than 1000 nM. For the same molecule, the IC50 in test [1] was 10000 to 100000 nM.
In the case of `COc1cc(C2CCN(c3ccc(-c4cc(C5=CCCN(C(=O)CCn6cccn6)C5)c(F)c5[nH]c(C(=O)N(C)C)cc45)c(C4CC4)c3)CC2)c(F)cc1NC1CCC(=O)NC1=O` (centres unmarked), at STAT6, the “STAT6 MSD degradation Dmax % 24 h” value is “A (A (>90%))” and the half-maximal degradation concentration (DC50) was less than 1 nM. Moreover, the half-maximal inhibitory concentration (IC50) in test [1] was less than 100 nM.
